The target in one assay is T1, Bcl-xL (Homo sapiens, UniProt Q07817, DEL26-81).
T1 construct: pET28a His-SUMO Bcl-xL (1-198, missing 26-81); made in house; host or cells: E. coli Rosetta 2
Kind of assay: Fluorescence anisotropy direct binding assay with Bcl-xL. The procedure:
Direct titration experiments were also performed for FITC labelled BID peptides (Fig. 5). […]
constructs were over-expressed in the E. coli strain Rosetta 2. Cells were resuspended in 50mM TRIS pH 8.0, 500mM NaCl, 15mM Imidazole and lysed by sonication. The clarified lysate was applied to a 5ml HisTrap column equilibrated with 50mM TRIS pH 8.0, 500mM NaCl, 15mM Imidazole. The HisTrap was then washed with 10 CV of 50mM TRIS pH 8.0, 500mM NaCl, 15mM Imidazole followed by 10 CV 50mM TRIS pH 8.0, 500mM NaCl, 25mM Imidazole. The fusion proteins were eluted in 50mM TRIS pH 8.0, 500mM NaCl, 300mM Imidazole. […]
(§1) The buffers used for fluorescence anisotropy were either phosphate buffer (40 mM sodium phosphate, 200 mM sodium chloride, 0.02 mg ml-1 bovine serum albumin, pH 7.50) or Tris buffer (50 mM Tris, 140 mM sodium chloride, pH 7.50). […]
(§2) Assays were run in 96 or 384 well Optiplates and were scanned using a Perkin Elmer EnVisionTM 2103 MultiLabel plate reader. […]
(§3) Plates were read after 1 h […]
respectively. Plates were read after 1 h.
For all variants of the labelled BID peptides (FITC-BID-WT,FITC-BID-MM, FITC-BID-DM and FITC-BID-Aib), the direct binding assays were performed in Tris Buffer in 384 well plates. […] Plates were read after 2 hours of incubation, and read again after 4 and 18 hours to ensure complete equilibration.
Processing of fluorescence anisotropy data […]
Background: Fluorescence polarisation rises when a labelled molecule tumbles more slowly, as on binding a larger partner.

The chains behind the UniProt entries cited, without tags or fusion partners. A line that says so, or that is headed by a name, gives the form on record, which may keep a tag or linker. Residues count along the entry.
UniProt Q07817, with tags, fused parts or gaps DEL26-81: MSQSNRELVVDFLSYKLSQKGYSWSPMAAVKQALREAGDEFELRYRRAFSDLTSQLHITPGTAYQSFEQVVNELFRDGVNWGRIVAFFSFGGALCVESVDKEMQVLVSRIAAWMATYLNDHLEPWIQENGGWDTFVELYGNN
UniProt Q07820, 172-327: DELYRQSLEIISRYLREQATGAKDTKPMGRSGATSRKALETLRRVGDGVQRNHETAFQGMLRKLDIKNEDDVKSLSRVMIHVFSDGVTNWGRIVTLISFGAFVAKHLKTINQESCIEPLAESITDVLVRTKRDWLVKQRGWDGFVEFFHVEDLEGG

The target of a further assay is T2, Mcl-1/FITC-NOXA-B (Homo sapiens, UniProt Q07820).
T2 construct: His-SUMO (N, cleaved yes); made in house; host or cells: E. coli Rosetta 2
In words: Fluorescence anisotropy competition assay, inhibition of Mcl-1/FITC-NOXA-B interaction. The assay is classed as binding. The procedure:
To profile the binding behaviour of the constrained peptides we tested them in both competition displacement assays and direct binding assays. […] Of particular interest was the potential for the introduction of a constraint to have differential effects on protein specificity/selectivity. […] We next tested the constrained peptides in inhibition assays (Fig. 3a and b and Table 2). […]
constructs were over-expressed in the E. coli strain Rosetta 2. Cells were resuspended in 50mM TRIS pH 8.0, 500mM NaCl, 15mM Imidazole and lysed by sonication. The clarified lysate was applied to a 5ml HisTrap column equilibrated with 50mM TRIS pH 8.0, 500mM NaCl, 15mM Imidazole. The HisTrap was then washed with 10 CV of 50mM TRIS pH 8.0, 500mM NaCl, 15mM Imidazole followed by 10 CV 50mM TRIS pH 8.0, 500mM NaCl, 25mM Imidazole. […]
as §1, §2, §3
respectively. Plates were read after 1 h. […]
Processing of fluorescence anisotropy data
Fluorescence anisotropy data was processed using Microsoft Excel to calculate intensity, anisotropy […]

For `CC[C@H](C)[C@H](NC(=O)[C@H](C)NC(=O)[C@H](CC(C)C)NC(=O)[C@H](CCC(N)=O)NC(=O)[C@H](CCCNC(=N)N)NC(=O)CNC(=O)[C@@H](NC(=O)[C@H](CCC(N)=O)NC(=O)CNC(C)=O)C(C)C)C(=O)N[C@H](C(=O)NCC(=O)N[C@@H](CC(=O)O)C(=O)N[C@@H](CC(=O)O)C(=O)N[C@H](C(=O)N[C@@H](CC(N)=O)C(=O)N[C@@H](CCCNC(=N)N)C(N)=O)[C@@H](C)CC)[C@@H](C)CC` [BODIPY-BAK], binding on Bcl-xL was characterised by a dissociation constant (Kd) of 4 ± 3.7 nM. Regarding `CC[C@H](C)[C@H](NC(=O)[C@H](CCCNC(=N)N)NC(=O)[C@H](CCCNC(=N)N)NC(=O)[C@H](CC(C)C)NC(=O)[C@H](CCC(N)=O)NC(=O)[C@H](C)NC(=O)[C@H](CS)NC(=O)[C@H](CCC(=O)O)NC(=O)[C@H](CC(=O)O)NC(=O)[C@H](CCCCN)NC(=O)[C@H](CC(C)C)NC(=O)[C@H](CC(=O)O)NC(=O)[C@H](C)NC(=O)[C@@H]1CCCN1C(C)=O)C(=O)NCC(=O)N[C@@H](CC(=O)O)C(=O)N[C@@H](CCCCN)C(=O)N[C@H](C(=O)N[C@@H](CC(N)=O)C(=O)N[C@@H](CC(C)C)C(N)=O)C(C)C` [NOXA-B], on Mcl-1/FITC-NOXA-B, the IC50 (usually the concentration that gives 50% inhibition) was found to be 700 nM.
